Measurements from US20220339116A1, “LIPID NANOPARTICLES AS ORAL VEHICLES OF IMMUNOTHERAPY” (The Johns Hopkins University, priority 2019, published 2022).

Test system: C57BL/6 to BALB/c heart transplants
Assay: Full MHC mismatch mouse heart transplantation model
Type: in vivo
Excerpt: FIGS. 1A-1B. ECoB promotes transplant survival via accumulation of Treg and inhibition of TH1 cells. TA, Survival curves of B6 to BALB/c heart transplants subjected to the treatment indicated. CTLA4-Ig administered on days 0, 2, 4, and 6. Tofa dosed daily from POD −1 to POD9. n=4-5 for each group. […] 1B, Profile of graft infiltrating CD4 T cells and of the production of IFN-γ by splenic T cells stimulated ex vivo with PMA/Inonmycin. Representative of 3 recipients.
The feasibility of combining CTLA4-Ig with a short-course Tofa administration in a full MHC mismatch (C57BL/6 to BALB/c) mouse heart transplantation model was tested (FIG. 1A). […] This improvement was evident even in mice receiving hearts kept ischemic for 4 h before transplantation—a more clinically relevant scenario—where CTLA4-Ig efficacy is undermined by early accumulation of inflammatory mediators^67 (MST untreated: 9d, CTLA4-Ig only: 26.5d, Tofa+CTLA4-Ig: 150d).

“CTLA4-Ig: a recombinant version of the co-regulatory molecule CTLA4 that sequesters the CD28 ligands CD80 and CD86; abatacept” was tested, and the “MST (heart transplant survival)” value (C57BL/6 to BALB/c, CTLA4-Ig on days 0, 2, 4, 6, Tofa short course (10 days)) was 36 days and the “MST (heart transplant survival)” value (hearts kept ischemic for 4 h before transplantation) was 26.5 days.
